Measurements reported in ChEMBL document CHEMBL3886333, “Buprenorphine analogs” (2015).

Key:
[1] = biological target: T1, Kappa-type opioid receptor (Homo sapiens, UniProt P41145); assay: (§1) GTPgammaS Functional Assay (kappa): Membranes from recombinant HEK-293 cells, CHO cells expressing the recombinant human kappa opioid receptor (kappa) were prepared by lysing cells in ice cold hypotonic buffer (2.5 mM MgCl2, 50 mM HEPES, pH 7.4) (10 mL/10 cm dish) followed by homogenization with a tissue grinder/Teflon pestle. Functional [35S]GTPgammaS binding assays were conducted as follows. kap
Mu-type opioid receptor [2] = biological target: T2, Mu-type opioid receptor (Homo sapiens, UniProt P35372); assay: (§2) GTPgammaS Functional Assay (mu): [35S]GTPgammaS functional assays were conducted using freshly thawed pt-receptor membranes prepared in-house from a cell line expressing recombinant mu opioid receptor in a HEK-293, CHO cell background, or purchased from a commercial source (Perkin Elmer, Shelton, Conn.; or DiscovRx, Fremont, Calif.). Assay reactions were prepared by sequentially adding the followi
Mu-type opioid receptor [3] = biological target: T2, Mu-type opioid receptor; assay: Radioligand Dose-Displacement Binding Assays (mu): Radioligand dose-displacement binding assays for mu-opioid receptors used 0.3 nM [3H]-diprenorphine (Perkin Elmer, Shelton, Conn.), with […] membrane protein/well in a final volume of 500 ul binding buffer (10 mM MgCl2,1 mM EDTA, 5% DMSO, 50 mM HEPES, pH 7.4). Reactions were carried out in the absence or presence of increasing concentrations of u
[4] = biological target: T1, Kappa-type opioid receptor; assay: Radioligand Dose-Displacement Binding Assays (kappa): Membranes from recombinant HEK-293 cells expressing the human κ opioid receptor (cloned in house) were prepared by lysing cells in ice cold hypotonic buffer (2.5 mM MgCl2,50 mM HEPES, pH 7.4) (10 mL/10 cm dish) followed by homogenization with a tissue grinder/Teflon pestle. Membranes were collected by centrifugation at 30,000×g for 15 min at 4°; conditions: sf9
Mu-type opioid receptor [5] = biological target: T2, Mu-type opioid receptor; assay: as §2, with “(U-2):” for “(mu):”, “U-2 OS” for “HEK-293, CHO”, “following re” for “followi”
[6] = biological target: T1, Kappa-type opioid receptor; assay: as §1, with “Functional Assay:” for “Functional Assay (kappa):”, “recombinant U-2 OS” for “recombinant HEK-293 cells, CHO”, “follows. kappa opioid receptor m” for “follows. kap”

Row | SMILES | EC50 [1] [nM] | EC50 (Mu-type opioid receptor [2]) [nM] | Ki (Mu-type opioid receptor [3]) [nM] | Ki [4] [nM] | EC50 (Mu-type opioid receptor [5]) [nM] | EC50 [6] [nM]
1 | COc1ccc2c3c1O[C@H]1[C@@]4(OC)CC[C@@]5(C[C@@H]4[C@](O)(CC(O)CO)c4ccccc4)[C@@H](C2)N(CC2CC2)CC[C@]315 (stereo not given in full) | 122 |  |  |  |  | 
2 | COc1ccc2c3c1O[C@H]1[C@@]4(OC)CC[C@@]5(C[C@@H]4C(N[C@H](C(N)=O)c4ccccc4)c4ccccc4)[C@@H](C2)N(CC2CC2)CC[C@]315 (stereo not given in full) |  | 4980 |  |  |  | 
3 | COc1ccc2c3c1O[C@H]1[C@@]4(OC)CC[C@@]5(C[C@@H]4C(NC(C)C(N)=O)c4ccccc4)[C@@H](C2)N(CC2CC2)CC[C@]315 (stereo not given in full) | 289 | 457 | 77 | 40.1 | 53 | 
4 | COc1ccc2c3c1O[C@H]1[C@@]4(OC)CC[C@@]5(C[C@@H]4C(NC(C(=O)O)c4ccccc4)c4ccccc4)[C@@H](C2)N(CC2CC2)CC[C@]315 (stereo not given in full) | 1770 | 656 |  | 51.3 |  | 
5 | COc1ccc2c3c1O[C@H]1[C@@]4(OC)CC[C@@]5(C[C@@H]4C(NCC(=O)O)c4ccccc4)[C@@H](C2)N(CC2CC2)CC[C@]315 (stereo not given in full) | 745 | 174 |  |  |  | 
6 | COc1ccc2c3c1O[C@H]1[C@@]4(OC)CC[C@@]5(C[C@@H]4C(NC(C)C(=O)O)c4ccccc4)[C@@H](C2)N(CC2CC2)CC[C@]315 (stereo not given in full) | 1640 | 379 |  | 138 | 172 | 399
7 | COc1ccc2c3c1O[C@H]1[C@@]4(OC)CC[C@@]5(C[C@@H]4C(N[C@@H](C(N)=O)c4ccccc4)c4ccccc4)[C@@H](C2)N(CC2CC2)CC[C@]315 (stereo not given in full) | 771 | 15000 |  | 21.8 |  | 
